Data on five compounds can be found in the OPERA property sets (Mansouri et al. 2018).

Usually solubility stands for the dissolved amount per volume that the medium holds.

Converted amounts (≈) assume the structure as drawn.

The conditions of this data set: experimental values compiled from the literature.
Turning to `O=C(O)c1c([N+](=O)[O-])cc([N+](=O)[O-])cc1[N+](=O)[O-]`, the solubility is 79.9 mM (≈ 20.5 mg/mL). The figure for `O=[N+]([O-])N1CN([N+](=O)[O-])CN([N+](=O)[O-])C1` is 0.269 mM (≈ 0.0597 mg/mL). The figure for `O=[N+]([O-])c1cc([N+](=O)[O-])c(O)c([N+](=O)[O-])c1` is 55.4 mM (≈ 12.7 mg/mL); for `CN(c1c([N+](=O)[O-])cc([N+](=O)[O-])cc1[N+](=O)[O-])[N+](=O)[O-]` it is 0.258 mM (≈ 0.074 mg/mL); for `CC(O)C(C)(C)C` (stereo not given) it is 238 mM (≈ 24.3 mg/mL).
